Here are results for one compound from US20220305051A1 (priority 2019, published 2022).

Experiment [1] has as its system C57bl/6 mice exposed to Cl2 gas. Kind of experiment: Survival of mice after Cl2 gas exposure, post-exposure IM nitrite.
Experiment [2] has as its system exposure to chlorine, bromine and/or phosgene gas. Kind of experiment: Animal models of chlorine, bromine and/or phosgene gas poisoning, post-exposure nitrite (summary). The conditions noted are these: post-exposure intramuscular sodium nitrite, mice, rats and rabbits.

For `O=NO` [nitrite, sodium nitrite], the Acute survival result in experiment [1] (IM nitrite given to mice post-Cl2 gas exposure) is recorded as “improves acute survival”. In addition, the “Time post-exposure with greatest survival benefit” value in experiment [1] (IM nitrite post-Cl2 gas exposure) is on record as “up to 18 hours”. Besides, the 24 hour survival entry was “only the highest dose was protective” in experiment [1] (female mice, Cl2 600 ppm 45 minutes, nitrite 10 mg/Kg IM 30 minutes post-exposure); “protective” in experiment [1] (female mice, Cl2 600 ppm 45 minutes, nitrite 20 mg/Kg IM 30 minutes post-exposure); “improved survival” in experiment [1] (male mice, Cl2 600 ppm 45 minutes, nitrite 10 mg/Kg IM 30 minutes post-exposure); “improved survival” in experiment [1] (male mice, Cl2 600 ppm 45 minutes, nitrite 20 mg/Kg IM 30 minutes post-exposure). The “Survival (Kaplan-Meier)” value in experiment [1] (male C57bl/6 mice, Cl2 600 ppm 45 minutes, nitrite IM at 60 minutes post-exposure, vs saline) is recorded as “Significantly higher survival”. Moreover, the “Acute lung injury and survival” value in experiment [2] was “significant decreases in acute lung injury and improved survival”.
